The record followed here is patent US20060217291A1, “Radiosensitizer” (priority 2005, published 2006).

For test [1], the system named is Ascites hepatoma LY80. Briefly: Survival time of rats implanted with LY80 tumor, with or without 20 Gy X-rays (Experimental Example 1). The test is classed as in vivo, Donryu rat. As to conditions: administration + 20 Gy X-rays; 10 mL/kg into common iliac artery, 6 days after implantation; logrank test. The method, then: (§1) Method: Tumor cells (Ascites hepatoma LY80) that had been subcultured in the abdominal cavity of a Donryu rat were implanted subfascially at the right thigh of the same strain rat in an amount of about 1.0×10^6 cells. Six days after the tumor implantation, (1)5% (w/v %, hereinafter abbreviated as %) rHSA solution, (2) rHSA-FecycP solution, (3)a solution of saccharated ferric oxide, or (4)a solution of chondroitin sulfate/iron colloid was administered to the common iliac artery of the rats at a concentration of 10 mL/kg (6 rats per group for (1) to (3), and 3 rats per group for (4)). Note that the solution of rHSA-FecycP, the solution of saccharated ferric oxide, and the solution of chondroitin sulfate/iron colloid each were prepared to have a concentration of 3 mM as iron. After the administration, 20 Gy of X-rays were immediately irradiated to each tumor-implanted site. Meanwhile, for comparison, a non-treatment group and an rHSA-FecycP administration group both to which X-rays were not irradiated were provided (6 rats per group).
The day of the tumor implantation was defined as day 0, and the life and death were observed up to 60 days after the implantation. The survival time of each group is shown by a box-and-whisker plot, and the logrank test (significance level of 5%) was performed as a significance test. […]

Test [2] relates to Ascites hepatoma LY80. Briefly: Tumor weight (growth delay) in rats implanted with LY80 tumor, with or without 20 Gy X-rays (Experimental Example 1). As to conditions: administration + 20 Gy X-rays; Tukey-Kramer test. The format is in vivo, Donryu rat. The method, then: as §1, with “group). […]” for “group).”
Meanwhile, the major axes and minor axes of each tumor were measured on 6, 7, 9, 12, 15, 20, 25, 32, 39, 46, 53, and 60 days after the tumor implantation, and the tumor weights were calculated according to the following equation. […]

Turning to “rHSA: recombinant human serum albumin (25% preparation, produced by Bipha Co., Ltd.), used as 5% control solution”, in the test on Ascites hepatoma LY80 [1], the “survival time compared to the irradiation group” value is “not extended”. Moreover, the “tumor weight compared to the irradiation groups” value in the test on Ascites hepatoma LY80 [2] is listed as “no difference”.
